PglD DTNB: blocks C. jejuni PglD acetyltransferase activity. purified PglD enzyme, DTNB colorimetric CoA detection. inhibition, % at 12.5 µM. 0.098% of 360,000 active. AID 602405; in the data active = inhibition above about 16%, passing the limit was not always enough
Yeast UUG start: modulators of yeast start codon fidelity, primary screen, whole organism, S. cerevisiae, single point, plate reader | activity score, % at 18.7 µM | 350,000 tested, 0.13% active | S. cerevisiae UUG-firefly luciferase reporter, luminescence/redox ratio;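 active means replicate mean at a twofold rise or more, about +100% in these data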;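 further: firefly luciferase made from a UUG start codon reports start codon fidelity; reporter light over untreated wells divided by growth signal over untreated wells; some hits fall short of that in this replicate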
DDE Tn7 FP inh: disrupts Tn7 cyclic peptide binding to fibrin D-Dimer-E complex | FP displacement of FITC-Tn7 peptide from fibrin DD(E); 0% = median of compound wells per plate | AID 720508 | 0.13% of 370,000 active | inhibition, % at 8.3 µM | P02675;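 active = inhibition above the mean of compounds falling within the control limits plus 3 SD of them, cut at about 14% in these data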;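 note: 0% = plate median of compound wells and 100% = 10 µM Aha-Tn7 peptide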
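Assay system: human fibrin DD(E) protein / Input: 2 µM fibrin DD(E) / Benchmarks: high control of 10 µM Aha-Tn7 peptide / Measured by: fluorescence polarization of the labelled Tn7 tracer / Medium: Tris buffer with calcium and detergent, pH 7.8 / Timing: 10 min compound pre-incubation, 3 h probe incubation at room temperature / Repeats: one replicate per compound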
DDE Tn6 FP inh: DD(E)-Tn6 binding inhibition, primary FP screen; P02675; inhibition, % at 8.3 µM; AID 720509; 0.21% of 370,000 active; Fibrin DD(E) TRITC-Tn6 fluorescence polarization displacement;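 active = inhibition above a per-campaign cutoff: mean of compounds within control limits plus 3 SD, cut at about 15% in these data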;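 note: 0% = median of all compound wells on the plate and 100% = blocking peptide control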
PglD inh SP: blocks Campylobacter jejuni PglD acetyltransferase activity. shares compounds with PglD DTNB. Purified C. jejuni PglD, DTNB absorbance 412 nm. inhibition, % at 20 µM. 320 tested, under 10 active. AID 743156;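 active = mean inhibition across replicates of at least 20% with every single replicate also at 20% or more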;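 note: initial rate of CoA release by acetyl transfer from AcCoA to the UDP-4-amino sugar; 0% = median of neutral control wells and 100% = median of positive control wells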
DDE Tn7 confirm: DD(E)-Tn7 binding inhibition, FP confirmation. 5% of 460 active. inhibition, % at 8.3 µM. AID 720628. shares compounds with DDE Tn7 FP inh. FP displacement of TRITC-Tn7 peptide from DD(E); 0% set at plate's compound-well median;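 active = inhibition above the campaign cutoff, the mean of compounds within control limits plus 3 SD, cut at about 14% in these data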;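 note: 100% = median FP of high control wells holding Aha-Tn7 inhibitor peptide; displacers lower polarization since freed probe rises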
DDE Tn7 FP ctr: DD(E)-Tn7 binding inhibition, counter-screen | 3% of 460 active | fibrin DD(E), TRITC-Tn7 probe displacement, fluorescence polarization | inhibition, % at 8.3 µM | shares compounds with DDE Tn7 FP inh;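 active = inhibition above the cutoff, the mean of compounds lying between the control bounds plus 3 SD of those compounds, cut at about 17% in these data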;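 note: 0% = median of compound sample wells and 100% = excess unlabeled Aha-Tn7 peptide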
An asterisk follows results filed as active; nt = not tested or not shown. Sampled rows, rich in hits. Any-hit rate of the full collection: about 0.45%.

SMILES	PglD DTNB	Yeast UUG start	DDE Tn7 FP inh	DDE Tn6 FP inh	PglD inh SP	others
CSCC[C@H](NC(=O)COc1cc2c(c3oc(=O)c(C)c(C)c13)CCC(C)(C)O2)C(=O)O	27*	3	1	4	-1
CCSc1nnc(NC(=O)[C@@H](NC(=O)c2cccc(C)c2)C(C)C)s1	23*	-27	0	5	1
O=C1C2C3C=CC(C3)C2C(=O)N1Cc1ccccc1 (stereo not given)	22*	-18	11	2	-14
O=C1OCCC1Sc1nnc(-c2ccc(Br)cc2)o1 (stereo not given)	34*	-22	-4	0	-3
O=C(NCC[C@H]1CC[C@H](NC(=O)C2CCOCC2)[C@@H](CO)O1)Nc1ccc(Cl)cc1	5	-5	nt	nt	nt
CC1CCC2(CC1)NC(=O)N(CC(=O)NCc1ccc(Cl)cc1)C2=O (stereo not given)	21*	-21	0	-4	1
CCC1CCC2(CC1)NC(=O)N(CC(=O)NCc1ccc(Cl)cc1)C2=O (stereo not given)	2	-10	5	4	nt
O=C(C[C@@H]1CC[C@@H]2[C@H](COC[C@H](O)CN2Cc2ccccc2)O1)NCc1ccccc1Cl	0	12	nt	nt	nt
CCOc1cc(C(=S)N2CCOCC2)ccc1OC(=O)c1ccccc1	-5	4	2	3	nt
CCOc1cc(C(=S)N2CCOCC2)ccc1OC(=O)c1ccc(C)cc1	45*	-8	0	-2	2

7 records drawn at random from those above, as already listed:
SMILES	PglD DTNB	Yeast UUG start	DDE Tn7 FP inh	DDE Tn6 FP inh	PglD inh SP	others
CCC1CCC2(CC1)NC(=O)N(CC(=O)NCc1ccc(Cl)cc1)C2=O (stereo not given)	2	-10	5	4	nt
CCOc1cc(C(=S)N2CCOCC2)ccc1OC(=O)c1ccccc1	-5	4	2	3	nt
CC1CCC2(CC1)NC(=O)N(CC(=O)NCc1ccc(Cl)cc1)C2=O (stereo not given)	21*	-21	0	-4	1
O=C(C[C@@H]1CC[C@@H]2[C@H](COC[C@H](O)CN2Cc2ccccc2)O1)NCc1ccccc1Cl	0	12	nt	nt	nt
O=C1OCCC1Sc1nnc(-c2ccc(Br)cc2)o1 (stereo not given)	34*	-22	-4	0	-3
CSCC[C@H](NC(=O)COc1cc2c(c3oc(=O)c(C)c(C)c13)CCC(C)(C)O2)C(=O)O	27*	3	1	4	-1
O=C1C2C3C=CC(C3)C2C(=O)N1Cc1ccccc1 (stereo not given)	22*	-18	11	2	-14

(cont.)
SMILES	PglD DTNB	Yeast UUG start	DDE Tn7 FP inh	DDE Tn6 FP inh	PglD inh SP	others
COCCNC(=O)C[C@H]1CC[C@H]2[C@@H](COc3ccc(NC(=O)CC(F)(F)F)cc3C(=O)N2C)O1	1	-12	nt	nt	nt
O=C(C[C@H]1CC[C@@H](NC(=O)NC2CCCCC2)[C@@H](CO)O1)NCc1ccccc1	-1	-1	nt	nt	nt
c1ccc(CNCCN2CCNCC2)nc1	30*	-16	6	0	-50
O=C(NCCN1CCNCC1)c1ccccc1O	-7	-6	-6	3	nt
CCC(=O)Nc1ccc2c(c1)C(=O)N(C)C[C@@H](OC)[C@H](C)CN(C(=O)Cc1ccccn1)[C@H](C)CO2	-1	-7	nt	nt	nt
Cc1ccccc1-c1nc(-c2ccc(NC(=O)c3ccc(Br)o3)cc2)no1	31*	-27	4	-10	2
Cc1ccccc1-c1nc(-c2ccc(Br)o2)no1	-1	-23	-10	-2	nt
Cc1ccc(O)c(NC(=O)CN(C)S(=O)(=O)c2ccc(Cl)cc2)c1	30*	-13	-4	4	5
O=C(C[C@H]1CC[C@@H](NC(=O)Nc2ccc3c(c2)OCO3)[C@@H](CO)O1)NCc1ccc(Cl)cc1	3	5	nt	nt	nt
CCSC1=NCN(CCCC(=O)O)CN1	20*	-27	3	-6	-2
Cc1cc(C)n(CCCC(=O)O)n1	2	-16	3	-4	nt
O=C1N=C2SCCN2/C1=C\c1ccc(Cl)cc1	30*	-23	-1	1	-2
CCn1cc(/C=N\NC(=O)c2ccc3c(c2)c(C)c(C)n3Cc2ccccc2)c(C)n1	32*	-13	6	3	-5
CCn1ncc(/C=N\NC(=O)c2ccc3c(c2)c(C)c(C)n3Cc2ccccc2)c1C	3	-18	-8	-10	nt
Cc1ccc(OCC(=O)N(C)CCc2ccccn2)cc1	24*	-1	8	6	-1
COc1ccccc1-c1ccc([C@@H]2[C@@H](C#N)N(C(=O)C3CC3)[C@@H]2CO)cc1	0	3	nt	nt	nt
COc1cc(C(O)c2nc(-c3ccc(C)c(C)c3)cs2)ccc1F (stereo not given)	25*	-9	3	4	8
CCOc1cc(C2NC(=O)NC(c3ccccc3)=C2C(C)=O)ccc1OC(C)=O (stereo not given)	23*	-6	0	-2	-4
C[C@H]1COC(=O)[C@@H](Cc2ccc(F)cc2)C/C=C\C[C@@H](CC(=O)NCCO)C(=O)N1	0	-10	0	-2	nt
C[C@@H]1COC(=O)[C@H](Cc2ccc(F)cc2)C/C=C\C[C@@H](CC(=O)NCCO)C(=O)N1	2	-12	15*	9	nt	DDE Tn7 confirm=-7;DDE Tn7 FP ctr=-11
COc1ccccc1-c1ccc([C@@H]2[C@@H](CO)N3CCCCN(C(=O)NC4CCCC4)C[C@H]23)cc1	2	10	nt	nt	nt
COCC(=O)Nc1ccc2c(c1)C(=O)N(C)[C@H]1CC[C@@H](CC(=O)NCCc3ccncc3)O[C@H]1CO2	0	-7	nt	nt	nt
O=C(c1cccs1)N1CCC(Cc2ccccc2)CC1	5	-8	14*	-10	nt	DDE Tn7 confirm=-6;DDE Tn7 FP ctr=-8
O=C(c1cccnc1)N1CC[C@@H]2[C@H]1c1cc(C#Cc3cccnc3)ccc1N[C@@H]2CO	0	-6	nt	nt	nt
CCc1nc2ccc(C(=O)NCCc3ccc(OC)c(OC)c3)cc2nc1CC	2	-9	0	1	nt
CCc1nc2ccc(C(=O)NCCc3ccccc3OC)cc2nc1CC	0	10	14*	6	nt	DDE Tn7 confirm=4;DDE Tn7 FP ctr=6
O=C(OCc1cn([C@H]2CN(C(=O)C3CCCCC3)[C@@H](c3ccccc3)C[C@@H]2O)nn1)c1ccccc1	2	-8	15*	7	nt	DDE Tn7 confirm=3;DDE Tn7 FP ctr=6
O=C(OCc1cn([C@@H]2CN(C(=O)C3CCCCC3)[C@@H](c3ccccc3)C[C@H]2O)nn1)c1ccccc1	-2	6	6	0	nt
CCC(CC)C(=O)c1c[nH]c(C(=O)NCc2ccccc2OC)c1	2	11	3	-9	nt
CCC(CC)C(=O)c1c[nH]c(C(=O)NCc2ccccc2)c1	-2	-15	14*	-1	nt	DDE Tn7 confirm=0;DDE Tn7 FP ctr=-2
Cc1cccc(N2C(=O)CN(Cc3cccs3)C2=S)c1	2	-13	15*	-1	nt	DDE Tn7 confirm=1;DDE Tn7 FP ctr=1
Cc1cccc(N2C(=O)CN(Cc3sccc3C)C2=S)c1	nt	nt	-1	2	nt
Cc1cc2ncn(S(=O)(=O)N3CCOCC3)c2cc1C	8	-33	-2	5	nt
Cc1cc2ncn(S(=O)(=O)N3CCCCC3)c2cc1C	6	-34	14*	1	nt	DDE Tn7 confirm=-1;DDE Tn7 FP ctr=-4
C[C@@H]1CN([C@H](C)CO)C(=O)Cc2cc(NC(=O)C3CC3)ccc2O[C@H]1CN(C)C(=O)Nc1ccc(F)cc1	-3	-9	nt	nt	nt
O=C1CC(c2ccc3c(c2)OCO3)c2cc3c(cc2N1)OCO3 (stereo not given)	0	-10	-5	-4	nt
Cc1ccc(C2CC(=O)Nc3cc4c(cc32)OCO4)o1 (stereo not given)	nt	nt	15*	14	nt	DDE Tn7 confirm=6;DDE Tn7 FP ctr=3
COc1ccc(N=Nc2nc3ccc(Br)cc3n2C)cc1	-10	-16	55*	6	nt	DDE Tn7 confirm=2;DDE Tn7 FP ctr=0
COC(=O)C[C@@H]1C=C[C@H](NC(=O)Nc2ccc(C(F)(F)F)cc2)[C@@H](CO)O1	1	nt	nt	nt	nt
